Reference: patent US20250296928A1, “A SYNTHESIS SCHEME AND PROCEDURES FOR PREPARING A SIK3 INHIBITOR AND INTERMEDIATES THEREOF” (iOmx Therapeutics AG, priority 2021, published 2025)

System: MC38 syngeneic tumour model
Test: MC38 syngeneic tumour model, comparative study E9 versus dasatinib (FIG. 5)
Type: in vivo, mice
Conditions: 30 mg/kg QD
Description: Left hand column=compound treatment group; and right hand column=vehicle treatment group. Y axes=Tumour volume (mm3); X axes=Days after inoculation.

Cc1nc(Nc2ncc(C(=O)Nc3c(C)cccc3Cl)s2)cc(N2CCN(CCO)CC2)n1 [Compound A8, N-(2-chloro-6-methylphenyl)-2-[[6-[4-(2-hydroxyethyl)-1-piperazinyl]-2-methyl-4-pyrimidinyl]amino]-5-thiazolecarboxamide]
average TGI: 56%
